Source: US11702404B2, “GLP-1R modulating compounds” (priority 2019, dated 2023)

Protein sequences, listed by entry. Tags and fused reporters are not part of them. Residues count along the entry.
UniProt P43220, 24-463 limits assumed: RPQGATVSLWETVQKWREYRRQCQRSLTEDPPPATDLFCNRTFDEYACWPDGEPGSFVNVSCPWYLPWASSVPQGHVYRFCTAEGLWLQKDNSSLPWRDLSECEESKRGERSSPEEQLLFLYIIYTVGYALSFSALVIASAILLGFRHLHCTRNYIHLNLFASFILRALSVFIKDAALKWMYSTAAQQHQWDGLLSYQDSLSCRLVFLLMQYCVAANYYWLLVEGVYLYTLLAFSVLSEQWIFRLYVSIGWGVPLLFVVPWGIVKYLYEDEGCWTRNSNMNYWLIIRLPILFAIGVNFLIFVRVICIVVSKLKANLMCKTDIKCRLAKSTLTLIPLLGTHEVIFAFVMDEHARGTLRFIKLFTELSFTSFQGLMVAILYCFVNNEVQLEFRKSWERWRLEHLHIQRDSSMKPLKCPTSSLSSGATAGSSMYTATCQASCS

Tests used:
[1] = Microsomal stability, human liver microsomes (predicted hepatic clearance); details: predicted from in vitro microsomal stability data
GLP-1R = GLP-1R (Homo sapiens, UniProt P43220); assay: GLP-1R activation: cAMP increase in CHO cells stably expressing GLP-1R; assay type: cell-based; details: 10 point dose response, 30 minutes incubation

SMILES: CNCCn1c(Cc2ccc(-c3ccc(F)c(OCc4ccc(Cl)cc4F)c3)cc2F)nc2ccc(C(=O)O)cc21
- Predicted Hepatic Clearance (Pred. Cl.) [1]: <1.83 mL/min/kg
- EC50 (GLP-1R): 666 nM

SMILES: CC(C)(N)Cn1c(Cc2cc(F)c(-c3cccc(OCc4ccc(C#N)cc4F)n3)cc2F)nc2ccc(C(=O)O)cc21
- Predicted Hepatic Clearance (Pred. Cl.) [1]: 1.83 mL/min/kg
- EC50 (GLP-1R): 2.56 nM

SMILES: N#Cc1ccc(COc2cccc(-c3cc(F)c(Cc4nc5ccc(C(=O)O)cc5n4CC45CC(CN4)C5)cc3F)n2)c(F)c1
- Predicted Hepatic Clearance (Pred. Cl.) [1]: 1.83 mL/min/kg
- EC50 (GLP-1R): 27.3 nM

SMILES: O=C(O)c1ccc2nc(Cc3ccc(-c4ccc(F)c(OCc5ccc(Cl)cc5F)c4)cc3F)n(CC3CCCN3)c2c1 (centres unmarked)
- Predicted Hepatic Clearance (Pred. Cl.) [1]: <1.83 mL/min/kg
- EC50 (GLP-1R): 1610 nM

SMILES: N#Cc1ccc(COc2cccc(-c3ccc(Cc4nc5ccc(C(=O)O)cc5n4C[C@H]4CCN4)c(F)c3)n2)c(F)c1
- Predicted Hepatic Clearance (Pred. Cl.) [1]: <1.83 mL/min/kg
- EC50 (GLP-1R): 88.7 nM

SMILES: CO[C@H]1CNC[C@H]1n1c(Cc2cc(F)c(-c3cccc(OCc4ccc(C#N)cc4F)n3)cc2F)nc2ccc(C(=O)O)cc21
- Predicted Hepatic Clearance (Pred. Cl.) [1]: 1.83 mL/min/kg
- EC50 (GLP-1R): 2.65 nM

SMILES: CN(C)C1(Cn2c(Cc3ccc(-c4cccc(OCc5ccc(C#N)cc5F)n4)cc3F)nc3ccc(C(=O)O)cc32)CC1
- Predicted Hepatic Clearance (Pred. Cl.) [1]: 8.67 mL/min/kg
- EC50 (GLP-1R): 3.94 nM

SMILES: O=C(O)c1ccc2nc(Cc3ccc(-c4ccc(F)c(OCc5ccc(Cl)cc5F)c4)cc3F)n(C[C@@H]3CCCN3)c2c1
- Predicted Hepatic Clearance (Pred. Cl.) [1]: <1.83 mL/min/kg
- EC50 (GLP-1R): 159 nM

SMILES: N#Cc1ccc(COc2cccc(-c3cc(F)c(Cc4nc5ccc(C(=O)O)cc5n4CCN4CCC4)cc3F)n2)c(F)c1
- Predicted Hepatic Clearance (Pred. Cl.) [1]: <1.83 mL/min/kg
- EC50 (GLP-1R): 2.59 nM

SMILES: N#Cc1ccc(COc2cccc(-c3cc(F)c(Cc4nc5ccc(C(=O)O)cc5n4CCN4CC(F)C4)cc3F)n2)c(F)c1
- Predicted Hepatic Clearance (Pred. Cl.) [1]: 4.83 mL/min/kg
- EC50 (GLP-1R): 2.27 nM

SMILES: N#Cc1ccc(COc2cccc(-c3cc(F)c(Cc4nc5ccc(C(=O)O)cc5n4CCNC4CC4)cc3F)n2)c(F)c1
- Predicted Hepatic Clearance (Pred. Cl.) [1]: 4.33 mL/min/kg
- EC50 (GLP-1R): 2.09 nM

SMILES: N#Cc1ccc(COc2cccc(-c3cc(F)c(Cc4nc5ccc(C(=O)O)cc5n4CC4(N)CC4)cc3F)n2)c(F)c1
- Predicted Hepatic Clearance (Pred. Cl.) [1]: 2.33 mL/min/kg
- EC50 (GLP-1R): 0.8 nM

SMILES: CN1CC[C@H]1Cn1c(Cc2ccc(-c3cccc(OCc4ccc(C#N)cc4F)n3)cc2F)nc2ccc(C(=O)O)cc21
- Predicted Hepatic Clearance (Pred. Cl.) [1]: 2.83 mL/min/kg
- EC50 (GLP-1R): 14.4 nM

SMILES: CO[C@@H]1CNC[C@H]1n1c(Cc2cc(F)c(-c3cccc(OCc4ccc(C#N)cc4F)n3)cc2F)nc2ccc(C(=O)O)cc21
- Predicted Hepatic Clearance (Pred. Cl.) [1]: 2.33 mL/min/kg
- EC50 (GLP-1R): 2.17 nM

SMILES: CN(C)CCn1c(Cc2ccc(-c3ccc(F)c(OCc4ccc(Cl)cc4F)c3)cc2F)nc2ccc(C(=O)O)cc21
- Predicted Hepatic Clearance (Pred. Cl.) [1]: 5 mL/min/kg
- EC50 (GLP-1R): 146 nM

SMILES: CO[C@@H]1CNC[C@@H]1n1c(Cc2cc(F)c(-c3cccc(OCc4ccc(C#N)cc4F)n3)cc2F)nc2ccc(C(=O)O)cc21
- Predicted Hepatic Clearance (Pred. Cl.) [1]: 1.83 mL/min/kg
- EC50 (GLP-1R): 2.83 nM

Only a part of the results on these compounds is given; other tests are left out.
